The target of test [1] is T1, Serotonin 3 (5-HT3) receptor (Rattus norvegicus) (UniProt P35563+Q9JJ16). The experiment in a line: Dose required to stimulate cardiac 5-HT3 receptors evaluated by using von Bezold-Jarisch reflex test in urethane-anesthetized rats after intravenous administration. It counts as functional, organism-based.
For test [2], the target named is T1, Serotonin 3 (5-HT3) receptor (Rattus norvegicus). The following applies: filed as antagonist.
Test [3] shares this target. Put plainly: Dose required to stimulate cardiac 5-HT3 receptors evaluated by using von Bezold-Jarisch reflex test in urethane-anesthetized rats. It counts as functional.
Test [4] shares this target. Put plainly: The stimulation of cardiac 5-HT3 receptors evaluated by using von Bezold-Jarisch reflex test in urethane-anesthetized rats; pure antagonist. The settings on record: filed as antagonist. It counts as functional.

Chains of the proteins cited; added tags and fusions are not shown. Lines headed by an entry give the natural chain unless they say otherwise; changes in a name come on top.
UniProt P35563: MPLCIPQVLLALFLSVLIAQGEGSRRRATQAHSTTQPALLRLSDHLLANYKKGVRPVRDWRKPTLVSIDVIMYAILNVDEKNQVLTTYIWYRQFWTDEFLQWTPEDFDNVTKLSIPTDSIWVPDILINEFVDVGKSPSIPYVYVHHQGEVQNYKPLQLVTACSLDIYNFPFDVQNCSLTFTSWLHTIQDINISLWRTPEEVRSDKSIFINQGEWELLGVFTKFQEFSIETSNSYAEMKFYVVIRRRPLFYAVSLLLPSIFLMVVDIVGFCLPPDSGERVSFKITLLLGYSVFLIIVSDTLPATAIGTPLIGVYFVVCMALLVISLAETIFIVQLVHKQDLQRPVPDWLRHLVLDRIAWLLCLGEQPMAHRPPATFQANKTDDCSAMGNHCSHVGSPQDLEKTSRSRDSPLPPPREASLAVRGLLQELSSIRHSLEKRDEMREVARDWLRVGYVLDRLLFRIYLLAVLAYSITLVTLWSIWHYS
UniProt Q9JJ16: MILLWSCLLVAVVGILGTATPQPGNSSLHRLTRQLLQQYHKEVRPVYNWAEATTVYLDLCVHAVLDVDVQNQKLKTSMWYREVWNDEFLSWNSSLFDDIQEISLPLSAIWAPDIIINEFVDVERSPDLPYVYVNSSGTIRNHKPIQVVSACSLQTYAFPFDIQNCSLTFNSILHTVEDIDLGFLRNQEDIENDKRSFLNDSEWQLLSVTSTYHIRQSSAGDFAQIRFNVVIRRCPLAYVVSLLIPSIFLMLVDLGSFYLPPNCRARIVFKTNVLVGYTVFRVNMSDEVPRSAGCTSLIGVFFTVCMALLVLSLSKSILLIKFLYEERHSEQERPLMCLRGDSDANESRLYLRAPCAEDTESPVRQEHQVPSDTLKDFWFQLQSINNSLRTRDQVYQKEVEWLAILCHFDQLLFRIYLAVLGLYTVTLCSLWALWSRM

Molecules are shown by their SMILES.

In test [1], `CN1CCN(c2nc3cc(C(F)(F)F)ccc3n3cccc23)CC1` registered an ID50 of 0.3 mg/kg. Besides, in test [2], the Behavior result is “Antagonist”.

`CN1CCN(c2nc3ccccc3n3cccc23)CC1` registered an ID50 in test [3] of 0.3 mg/kg. Further, the Behavior result in test [4] is “Antagonist”.
